Laboratory results taken from patent US20050148631A1, “Amino heterocyclyl inhibitors of 11-beta-hydroxy steroid dehydrogenase type 1” (AGOURON PHARMACEUTICALS, INC., priority 2003, published 2005).

The chains behind the UniProt entries cited, without tags or fusion partners.
UniProt P28845, whole entry, species assumed: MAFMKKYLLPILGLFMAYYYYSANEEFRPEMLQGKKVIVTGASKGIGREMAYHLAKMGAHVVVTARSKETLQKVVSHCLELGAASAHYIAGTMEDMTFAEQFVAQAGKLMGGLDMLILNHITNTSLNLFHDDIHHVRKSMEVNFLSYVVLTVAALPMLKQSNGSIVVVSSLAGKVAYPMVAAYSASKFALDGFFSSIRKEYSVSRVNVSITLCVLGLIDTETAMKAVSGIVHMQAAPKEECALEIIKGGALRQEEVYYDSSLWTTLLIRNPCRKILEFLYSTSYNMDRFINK

Biological target: 11β-hsd-1 enzyme (Homo sapiens, UniProt P28845)
Assay: 11β-hsd-1 enzyme assay, percentage of inhibition (3H-cortisone to cortisol, radio-HPLC)
Format: biochemical
Details: read-out: % inh @ 0.1 uM

`N#Cc1ccc(-c2ccc(S(=O)(=O)Nc3cccc(N)n3)cc2)cc1` [Example 61] was tested, and the inhibition at 0.1 µM was 98.6%.
